## Measured affinities in a library of Ab-91 heavy chain variants

From the AlphaSeq antibody data of Engelhart et al. 2022 (doi:10.1038/s41597-022-01779-4), copy in the FLAb collection.

The target is the same throughout: PDVDLGDISGINAS, from the HR2 region of SARS-CoV-2 spike.

The variants keep the light chain, the linker and the frameworks of Ab-91 (scFv order VL, three GGGGS repeats, VH).
VL: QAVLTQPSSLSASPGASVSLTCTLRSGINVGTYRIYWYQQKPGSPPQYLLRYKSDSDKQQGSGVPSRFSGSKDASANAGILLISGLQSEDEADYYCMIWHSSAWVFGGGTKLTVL
VH: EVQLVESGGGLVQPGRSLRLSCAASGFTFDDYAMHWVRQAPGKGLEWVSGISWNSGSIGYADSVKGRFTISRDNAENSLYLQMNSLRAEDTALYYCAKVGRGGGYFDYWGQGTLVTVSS

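The starting antibody came from a phage panning campaign against this peptide. In library AAYL51, one, two or three CDR residues were substituted; doubles and triples were drawn at random. The assay is AlphaSeq: two haploid yeast populations carry antibody and antigen on their surface. Pairs that bind mate more often; barcode pairs of the diploids are counted by sequencing. Scores were corrected for input abundance and mapped to Kd with protein pairs of known affinity run in the same pool. Mating was done three times.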

Variants are written as CDR1, CDR2 and CDR3 of the heavy chain (limits as in the source). Parent: GFTFDDYAMH, GISWNSGSIGYADSVK, VGRGGGYFDY.
Numbers give log10(Kd / nM), so 0 is 1 nM and 3 is 1 µM. Smaller is tighter.
"ND" means that the variant was in the library but no mating with the target was seen in that replicate; the authors take this as a sign of poor binding, and no number exists.
Empty control strains, which show no peptide, gave a signal in 21% of pairings with library AAYL51; the median was 4.54 and 95% of these signals were weaker than 3.26. No background was subtracted. Also given: how often the same scFv was detected with the empty control strains, with their mean in brackets.
For reference, the parent read 1.86 as the reference entry and 0.88 as a member of this library.

CDR-H1	CDR-H2	CDR-H3	replicates, log10 nM	control signals
GFTFDDYKMH	GPSWNSGSIGNADSVK	VGRGGGYFDY	ND 5.56 ND	3 of 9 (4.62)
GFTFFDYAMH	GISANSGSIGYADSVK	VGRGGGYFDY	1.60 1.63 1.20	1 of 9 (4.10)
GFNFDDYAMH	GISWNSGSIGYADSVK	VGRGGGYFWY	4.09 ND ND	0 of 9
GFTFDDYAMH	GICWNSGSIGYADSVK	DMRGGGYFDY	4.41 ND ND	1 of 9 (4.26)
GFTFDDYAMH	GISWNSGSIGYADSVQ	EGRGGGYRDY	1.77 1.80 1.38	6 of 9 (5.34)
GFTFDDYAMH	GISNNQGSIGYADSVK	VGRGGGYFDY	ND ND ND	0 of 9
GFEFDDYAMH	GIQWNSGSIGYADSVK	VGRGGRYFDY	2.92 ND ND	0 of 9
GFTFDDYAMH	GISWNSGSIGYMDSVK	VGRGEGYFNY	ND ND ND	0 of 9
GFTQDDYAML	GISCNSGSIGYADSVK	VGRGGGYFDY	ND ND ND	0 of 9
GFTFDDYAMH	EISWNSGSIGYADSVK	VGRGTGYFDY	ND ND ND	1 of 9 (6.84)
LGTFDDYAMH	GISWNSGSIGYADSVK	VGRGGSYFDY	6.22 5.12 ND	6 of 9 (4.74)
GFTFDMWAMH	GISWNSGSIGYADSVK	VGRGGGYRDY	3.20 2.99 3.06	1 of 9 (4.61)
GFTFDDYAMH	GISWNCGSIGYADSSW	VGRGGGYFDY	ND ND ND	2 of 9 (3.69)
GFTKDDEAMH	GISWNSGSIGYADSVK	VGRGGGYHDY	4.34 ND ND	1 of 9 (3.71)
GFTFDDYAMH	GISWNSGSWGYADSPK	VGRGEGYFDY	3.75 ND ND	1 of 9 (4.51)
WFTFDDTAMH	GISWNSGEIGYADSVK	VGRGGGYFDY	3.77 ND ND	2 of 9 (3.86)
GFTMDDYAMH	GGSWNSGSIGYADSVK	VGRGGGYNDY	ND ND ND	1 of 9 (3.54)
GFTFDDYAMH	GCSWNYGSIGYADSVK	VGRGGGYFDY	3.68 3.67 4.99	2 of 9 (4.98)
GFTFDDYAMH	GISWNSFSIFYADSVK	VGRGGGYADY	4.99 4.76 4.92	5 of 9 (5.15)
GFTFDDYAMH	GISWNVGSIGYPDNVK	VGRGGGYFDY	3.71 ND ND	0 of 9
GFTFDDYAMH	GISWNSGSIGYADSVK	VGRMGGYFGR	4.74 ND 4.00	3 of 9 (3.66)
GFTFDDTAMH	GTSWNSGSIGYADSVK	VGRSGGYFDY	4.23 3.83 4.83	3 of 9 (4.46)
GFTIDDYAMH	RISWNSGSIGYADSVK	VTRGGGYFDY	ND 4.13 4.61	2 of 9 (5.12)
GFTFDDYAMH	GSSLNSGSIGYAVSVK	VGRGGGYFDY	ND ND ND	0 of 9
GFTFDDYAMH	GISWNSHSIAYADSVK	VGRGGGYFDY	ND 5.17 ND	0 of 9
GFTFDDYAVH	GISWNSGSQPYADSVK	VGRGGGYFDY	4.72 ND ND	0 of 9
GFTFDDYAMS	GISWNSGSIGYADSLK	PGRGGGYFDY	ND 6.15 ND	2 of 9 (4.77)
GFTKDDYAMH	GISWQSGSIGIADSVK	VGRGGGYFDY	ND 3.91 3.65	1 of 9 (3.25)
GFTFIDYAMR	GISWNSGSIGYADSVK	VGRGGGMFDY	ND 5.36 ND	6 of 9 (4.78)
GGTRDDYAMH	GISWNSGSIGYADSVK	VGRGGGPFDY	4.79 ND 3.44	0 of 9
GFTFDDYAMH	GISWNFDSIGYATSVK	VGRGGGYFDY	ND ND 2.44	0 of 9
GITFDDYAMH	GISWNSGSIGYADCVL	VGRGGGYFDY	ND 3.83 ND	0 of 9
GFTFDDYAMH	GISWNSGSPPYADSVK	VGRGGGPFDY	5.29 5.83 ND	5 of 9 (4.87)
GFTFDDYAMG	GIVWNSGSIGFADSVK	VGRGGGYFDY	ND 4.31 ND	3 of 9 (3.50)
GFTFDNYAMH	GISWNSGSIGYADSVY	VGRGGGYWDY	2.16 1.76 1.66	3 of 9 (4.17)
GFWFDDYAMH	GISWNSGSICYADSVK	VGRGGGMFDY	ND ND ND	1 of 9 (3.62)
GFTFDDYAMH	GIPWNSGSIGYADSVK	DGRGQGYFDY	ND ND ND	0 of 9
GFTFDDYAYH	GIWWNSGSISYADSVK	VGRGGGYFDY	ND ND ND	2 of 9 (3.95)
GFTFDDYAMH	GISWNSGSIGYADSRK	VGRGKGYSDY	ND 3.18 ND	1 of 9 (4.51)
GFTFDDCAMH	GISWNSGSIGTADRVK	VGRGGGYFDY	4.87 3.57 4.05	6 of 9 (4.92)
GFTFDDYAMH	GISWNSGSIGYADSVK	HGFGGGYFDE	5.72 4.75 5.42	4 of 9 (4.71)
GNTFDDYAMH	GISWNHCSIGYADSVK	VGRGGGYFDY	3.09 ND ND	0 of 9
GFTFDDYAMH	GISYNSGSIGYAQSVK	VGRGGGQFDY	4.14 2.35 3.13	3 of 9 (3.12)
GFTFDDYRMH	GISWNSGSDGYADSVK	VGRGGGYFCY	ND ND ND	3 of 9 (4.06)
EFTFDDYAMH	GISWCSGSIGYADSGK	VGRGGGYFDY	ND ND ND	3 of 9 (3.99)

The 7 strongest on average among those seen in every replicate, once more:

CDR-H1	CDR-H2	CDR-H3	replicates, log10 nM	control signals
GFTFFDYAMH	GISANSGSIGYADSVK	VGRGGGYFDY	1.60 1.63 1.20	1 of 9 (4.10)
GFTFDDYAMH	GISWNSGSIGYADSVQ	EGRGGGYRDY	1.77 1.80 1.38	6 of 9 (5.34)
GFTFDNYAMH	GISWNSGSIGYADSVY	VGRGGGYWDY	2.16 1.76 1.66	3 of 9 (4.17)
GFTFDMWAMH	GISWNSGSIGYADSVK	VGRGGGYRDY	3.20 2.99 3.06	1 of 9 (4.61)
GFTFDDYAMH	GISYNSGSIGYAQSVK	VGRGGGQFDY	4.14 2.35 3.13	3 of 9 (3.12)
GFTFDDYAMH	GCSWNYGSIGYADSVK	VGRGGGYFDY	3.68 3.67 4.99	2 of 9 (4.98)
GFTFDDCAMH	GISWNSGSIGTADRVK	VGRGGGYFDY	4.87 3.57 4.05	6 of 9 (4.92)